Laboratory results reported in patent US4673747A, “Aminoalkylphenoxy derivatives” (Ikeda Mohando Co., Ltd., priority 1984, dated 1987).

Amino acid sequences for entries named in this document (tags omitted).
UniProt P47747, whole entry: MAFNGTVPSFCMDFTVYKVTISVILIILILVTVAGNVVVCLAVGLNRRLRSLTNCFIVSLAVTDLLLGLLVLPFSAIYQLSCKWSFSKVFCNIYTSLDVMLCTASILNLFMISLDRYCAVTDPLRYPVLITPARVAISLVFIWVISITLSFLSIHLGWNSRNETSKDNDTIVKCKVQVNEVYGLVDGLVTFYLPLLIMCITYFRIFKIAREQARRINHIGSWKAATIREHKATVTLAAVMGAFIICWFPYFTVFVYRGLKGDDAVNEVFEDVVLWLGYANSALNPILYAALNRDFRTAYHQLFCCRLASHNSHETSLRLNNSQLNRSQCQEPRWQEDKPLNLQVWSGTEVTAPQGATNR

Target: T1, Histamine H2-Receptor (Cavia porcellus, UniProt P47747)
T1 construct: from tissue; host or cells: isolated atrium of male Hartley guinea pig
Set-up: species or system guinea pig (male Hartley)
Experimental: A male Hartley guinea pig having a body weight of about 400 g was killed by cervical dislocation, and the artrium thereof was isolated and was suspended in an organ bath containing 50 ml of a modified Ringer solution and subjected to a tension of 1 g. The number of heart beats under such condition was recorded using a polygraph.
Initially, from 1×10^-7 mol to 3×10^-4 mol of histamine was allowed to act accumulatively to depict the curve of the dosage-reaction relationship. Likewise, the curve of the dosage of histamine-reaction relationship was depicted in the presence of 5×10^-7 mol to 1×10^-6 mol of the test sample which was injected 3 minutes before. The negative logarithm (pA2) of the molar concentration of the test sample required for moving the curve obtained by single administration of histamine parallel to the right side by a two-times concentration was calculated.

Q: `CN/C(=N/CCSCc1nc[nH]c1C)NC#N` [Cimetidine, reference compound] was tested. Which Kb did it give?
A: 355 nM
